Measured values: ChEMBL document CHEMBL1147033, “Novel selective androgen receptor modulators: SAR studies on 6-bisalkylamino-2-quinolinones” (Bioorg Med Chem Lett, 2007)

Amino acid sequences for entries named in this document (tags omitted). A change or cut given only in a name is not applied to a line headed by its entry.
UniProt P10275: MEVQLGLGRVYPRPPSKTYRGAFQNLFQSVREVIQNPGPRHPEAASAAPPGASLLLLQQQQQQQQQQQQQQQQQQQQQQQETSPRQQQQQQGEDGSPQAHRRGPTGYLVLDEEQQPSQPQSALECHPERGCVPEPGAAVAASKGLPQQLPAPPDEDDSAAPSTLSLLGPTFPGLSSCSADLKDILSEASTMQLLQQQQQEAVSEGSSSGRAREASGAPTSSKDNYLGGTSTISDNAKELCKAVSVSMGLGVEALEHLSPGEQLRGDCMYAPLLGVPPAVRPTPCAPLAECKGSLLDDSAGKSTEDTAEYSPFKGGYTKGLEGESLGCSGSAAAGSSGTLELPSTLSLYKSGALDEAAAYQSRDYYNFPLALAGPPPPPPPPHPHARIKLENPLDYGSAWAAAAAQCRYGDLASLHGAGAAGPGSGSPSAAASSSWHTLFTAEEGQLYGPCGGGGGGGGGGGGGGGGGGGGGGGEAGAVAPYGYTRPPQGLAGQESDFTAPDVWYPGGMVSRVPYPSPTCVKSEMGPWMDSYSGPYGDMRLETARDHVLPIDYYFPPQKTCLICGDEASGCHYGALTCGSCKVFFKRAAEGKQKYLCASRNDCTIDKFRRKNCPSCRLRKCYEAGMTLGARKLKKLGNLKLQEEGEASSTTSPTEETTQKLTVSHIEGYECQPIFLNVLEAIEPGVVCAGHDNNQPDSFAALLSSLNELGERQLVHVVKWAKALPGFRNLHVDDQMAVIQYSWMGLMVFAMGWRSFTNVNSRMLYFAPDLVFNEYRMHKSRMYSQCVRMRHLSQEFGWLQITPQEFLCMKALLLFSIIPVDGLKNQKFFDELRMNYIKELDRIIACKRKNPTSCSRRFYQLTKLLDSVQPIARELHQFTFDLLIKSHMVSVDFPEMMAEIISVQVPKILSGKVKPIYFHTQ

Key:
[1] = target: T1, Androgen receptor (Homo sapiens, UniProt P10275)
[2] = target: T1, Androgen receptor; remark: listed apart in the source
[3] = target: T1, Androgen receptor; remark: listed apart in the source

Row | SMILES | EC50 [1] | IC50 [2] | Ki [3]
1 | Cc1cc(=O)[nH]c2ccc(N(CC(C)C)CC(F)(F)F)cc12 | 3.2 nM | > 10000 nM | 12 nM
2 | CCCN(CC(F)(F)F)c1ccc2[nH]c(=O)cc(C(F)(F)F)c2c1 | 1.3 nM | > 10000 nM | 12 nM
3 | O=c1cc(C(F)(F)F)c2cc(N(CC(F)(F)F)CC(F)(F)C(F)(F)F)ccc2[nH]1 | 2.3 nM | > 10000 nM | 31 nM
4 | Cc1cc(=O)[nH]c2ccc(N(CC(F)(F)F)CC(F)(F)F)cc12 | 0.8 nM | > 10000 nM | 
5 | CCc1cc(=O)[nH]c2ccc(N(CC(F)(F)F)CC(F)(F)F)cc12 | 12 nM | > 10000 nM | 5.4 nM
6 | O=c1ccc2cc(N(CC(F)(F)F)CC(F)(F)F)ccc2[nH]1 | 57 nM | 1 nM | 24 nM
